# In PubChem BioAssay AID743126 (The Scripps Research Institute Molecular Screening Center, 2013):
# Amino acid sequences for entries named in this document (tags omitted). A change or cut given only in a name is not applied to a line headed by its entry.
# UniProt Q9NZ20: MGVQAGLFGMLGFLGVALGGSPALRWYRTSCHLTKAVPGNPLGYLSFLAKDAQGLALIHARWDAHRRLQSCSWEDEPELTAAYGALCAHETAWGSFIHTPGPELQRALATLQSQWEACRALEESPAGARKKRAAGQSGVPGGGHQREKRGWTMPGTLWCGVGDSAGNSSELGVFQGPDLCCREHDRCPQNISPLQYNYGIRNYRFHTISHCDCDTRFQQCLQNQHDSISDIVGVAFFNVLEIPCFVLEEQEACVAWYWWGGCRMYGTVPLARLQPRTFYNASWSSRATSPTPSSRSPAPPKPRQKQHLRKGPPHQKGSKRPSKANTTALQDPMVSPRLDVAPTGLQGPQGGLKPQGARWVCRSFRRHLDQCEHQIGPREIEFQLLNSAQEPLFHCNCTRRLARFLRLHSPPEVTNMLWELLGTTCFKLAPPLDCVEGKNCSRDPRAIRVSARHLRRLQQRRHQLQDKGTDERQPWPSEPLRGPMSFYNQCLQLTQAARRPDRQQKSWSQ
# The entries are a selection whose mix differs from that of the whole data set. Activity calls are given as the source filed them.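 The calls were made as follows: active = inhibition above mean plus 3 SD of compounds lying within the high and low control bounds (cut at about 19% in these data); inactive = the rest.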
# Biological target: Group 3 secretory phospholipase A2 (Homo sapiens) (UniProt Q9NZ20)
# Test: HGIII-sPLA2 enzyme inhibition – biochemical, QFRET, BODIPY PC-A2 liposome substrate, primary screen (AID 743126);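 also: 0% = median of test compound wells and 100% = no enzyme DMSO wells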
# Conditions: QFRET BODIPY PC-A2 liposome hydrolysis, fluorescence; at 12.2 µM; stronger effect = higher value
row,SMILES,inhibition
1,CCC1=CC2Cc3nc4ccc(Cl)cc4c(N)c3C(C1)C2 (configuration not stated),inactive: -7.16%
2,CCOP(=O)(Nc1ccc(C)cn1)OCC,inactive: 2.05%
3,CN(CCCl)Cc1cc(Cl)c(NC2=NCCN2)c(Cl)c1,inactive: 1.28%
4,CC(C)(C)C(=O)NC(Sc1ncccn1)C(Cl)(Cl)Cl (configuration not stated),inactive: 17.1%
5,O=P1(N(CCCl)CCCl)NCCC(C(F)(F)F)O1 (configuration not stated),inactive: 3.16%
6,Clc1n[nH]nc1-c1nn[nH][15n]1,inactive: 0.12%
7,COc1ccccc1CNC(=O)COC(=O)C(O)(c1ccccc1)c1ccccc1,inactive: -0.13%
8,CN(C(=O)Cc1ccc(Cl)c(Cl)c1)C1CCCC[C@@H]1N1CCCC1 (some centres not stated),inactive: 1.84%
9,CC(C)/C=N\N=C(\N)N[N+](=O)[O-],inactive: -0.78%
10,CN(C(=O)Cc1ccc(Cl)c(Cl)c1)[C@@H]1CCCC[C@H]1N1CCCC1,inactive: 10.3%
11,CC1(CBr)Cn2c(nc3ccccc3c2=O)S1 (configuration not stated),inactive: 3.32%
12,O=C(OC1CN2CCC1CC2)c1ccc(Cl)cc1 (configuration not stated),inactive: 12.3%
13,CS(=O)(=O)c1ccc(Cl)c(NC(=O)COC(=O)C(O)(c2ccccc2)c2ccccc2)c1,inactive: -10.9%
14,O=[As](O)(O)c1cccnc1,inactive: -0.17%
15,COc1cc(C(=O)NCC2(N3CCOCC3)CCCCC2)cc(Cl)c1OC(C)C,inactive: 6.1%
16,Cc1cccc(OCC(=O)OC2CN3CCC2CC3)c1 (configuration not stated),inactive: -3.77%
17,O=[As](O)(c1cccc(O)c1)c1cccc(O)c1,inactive: -4.03%
18,Cc1ccc(NCCc2c([N+](=O)[O-])cc([N+](=O)[O-])cc2[N+](=O)[O-])cc1,inactive: 1.01%
19,Nc1cccc2c([As](=O)(O)O)cccc12,inactive: -39.8%
20,CCCOP(=S)(Nc1nc(N)cc(=O)[nH]1)OCCC,inactive: 3.51%
21,CCOP(=O)(Nc1cccc2ccccc12)OCC,inactive: 0.77%
22,COc1cc(C2NCCC3(OCCO3)C2(C)C)cc(OC)c1OC (configuration not stated),inactive: 0.56%
23,O=P(Nc1nccs1)(Oc1ccccc1)Oc1ccccc1,inactive: -7.9%
24,CCOP1(=S)c2c(C)nn(CCC#N)c2N=C(c2ccccc2F)N1C (configuration not stated),inactive: 1.78%

row,SMILES,inhibition
1,Nc1ccccc1[As](=O)(O)c1ccccc1,inactive: -0.25%
2,O=C(O)COc1ccc([As](=O)(O)O)cc1[N+](=O)[O-],inactive: -0.74%
3,NC(=O)Nc1ccc([As](=O)(O)O)cc1,inactive: 3.31%
4,CCOP1(=S)c2c(C)nn(CCC#N)c2N=C(c2ccc(F)cc2)N1C (configuration not stated),inactive: -0.48%
5,CN(C(=O)Cc1ccccc1)[C@@H]1CC[C@]2(CCCO2)C[C@H]1N1CCCC1,inactive: 1.34%
6,N#CCCN(C(=O)COC(=O)C(O)(c1ccccc1)c1ccccc1)c1ccc(F)cc1,inactive: -10.4%
7,CN(C(=O)Cc1ccc(Cl)c(Cl)c1)[C@H]1CC[C@@]2(CCCO2)C[C@@H]1N1CCCC1,inactive: -6.12%
8,O=[N+]([O-])c1ccc2c(c1)nnn2O,inactive: 3.39%
9,CN(C)C(=O)c1cc([N+](=O)[O-])cc2c1-c1c(cc([N+](=O)[O-])cc1[N+](=O)[O-])C2=O,inactive: -8.2%
10,O=[N+]([O-])c1ccc(-c2cc([N+](=O)[O-])c(O)c([N+](=O)[O-])c2)cc1,inactive: -12.7%
11,COc1cc(C(=O)NCC2(N3CCOCC3)CCCCC2)ccc1OCC(C)C,inactive: -8.3%
12,O=[As](O)(c1ccc(O)cc1)c1ccccc1O,inactive: -1.75%
13,C[As](=O)(O)c1cccc(C(=O)O)c1,inactive: 1.41%
14,[N-]=[N+]=NC1CCCCC1NC(=O)c1cc([N+](=O)[O-])cc([N+](=O)[O-])c1 (configuration not stated),inactive: 6.27%
15,Cc1ccc(OP(=O)(Nc2ccc([N+](=O)[O-])cn2)Oc2ccc(C)cc2)cc1,inactive: -0.6%
16,Cc1ccc2nc3c(c(C)c2c1)CC(C(Cl)Cl)S3 (configuration not stated),inactive: 3.13%
17,ClCCSc1nnc(-c2cccnc2)o1,inactive: 2.79%
18,COC(=O)C1(C)COP(=O)(N2CCCCCC2)OC1 (configuration not stated),inactive: 2.93%
19,CC(C)c1ccc(OP(=O)(Nc2ccccn2)Oc2ccccc2F)cc1 (configuration not stated),inactive: 14.5%
20,CC(C)NC(=O)NP(=O)(Oc1ccccc1)Oc1ccccc1,inactive: 4.36%
21,CCN(CC)C(=S)SC(NC=O)C(Cl)(Cl)Cl (configuration not stated),inactive: 2.43%
22,O=C(OC1CN2CCC1CC2)c1cccc2[nH]cnc12 (configuration not stated),inactive: 11.8%
23,Cc1c2c(nc3ccccc13)SC(C(Cl)Cl)C2 (configuration not stated),inactive: -5.63%
24,Cc1cc(=O)[nH]c(N[N+](=O)[O-])n1,inactive: 3.71%

row,SMILES,inhibition
1,O=C(OC1CN2CCC1CC2)C12CC3CC(CC(C3)C1)C2 (configuration not stated),inactive: -4.85%
2,O=P1(N(CCCl)CCCl)Nc2ccccc2N1,inactive: 10.2%
3,O=P1(N(CCCl)CCCl)OCCCN1CCCl (configuration not stated),inactive: 1.23%
4,COc1cc(I)ccc1[As](=O)(O)O,inactive: 9.48%
5,COc1ccc2nc(NP(=O)(c3ccccc3)c3ccccc3)sc2c1,inactive: -19.2%
6,O=[N+]([O-])c1cc(Oc2ccc([N+](=O)[O-])cc2C(F)(F)F)cc([N+](=O)[O-])c1,active: 24.7%
7,COc1ccc(N/C(=N/P(=O)(N2CCOCC2)N2CCOCC2)N2CCOCC2)cc1,inactive: 1.9%
8,COC(=O)C1(C)COP(=O)(N2CCCC2)OC1 (configuration not stated),inactive: 2.04%
9,COP1(=S)c2c(C)nn(CCC#N)c2N=C(c2ccc(F)cc2)N1C (configuration not stated),inactive: 2.35%
10,O=C(O)C(=O)c1ccc(N(CCCl)CCCl)cc1,inactive: -1.69%
11,O=C(Nc1ccncc1[N+](=O)[O-])c1ccc([N+](=O)[O-])cc1[N+](=O)[O-],inactive: -4.79%
12,O=C(COc1ccccc1)OC1CN2CCC1CC2 (configuration not stated),inactive: 5.75%
13,O=C(OC1CN2CCC1CC2)c1cccc([N+](=O)[O-])c1 (configuration not stated),inactive: 4.77%
14,CCOC(=O)c1ccc(NC(=O)C(C)(CCl)SC)cc1 (configuration not stated),inactive: -5.7%
15,CCC(C)N(CC(C)C)C(=S)SC(NC(C)=O)C(Cl)(Cl)Cl (configuration not stated),inactive: 5.74%
16,CCOC(=O)Nc1ccc([As](=O)(O)O)c(O)c1,inactive: 4.68%
17,O=C(O)C(O)c1ccc(N(CCCl)CCCl)cc1 (configuration not stated),inactive: -5.7%
18,CC1CCNP(=O)(N(CCCl)CCCl)O1 (configuration not stated),inactive: -0.66%
19,COP(=O)(OC)N1CC1c1ccccc1 (configuration not stated),inactive: -2.44%
20,Cc1cc(SC(NC(=O)c2ccccc2)C(Cl)(Cl)Cl)nc(C(C)C)n1 (configuration not stated),inactive: -4.46%
21,CCCCOc1ccc(C(=O)NCC2(N3CCCCC3)CCCCC2)cc1OC,inactive: 3.28%
22,CCOC(=O)Nc1cccc([As](=O)(O)O)c1,inactive: 2.67%
23,O=P(Nc1ccccn1)(c1cccc2ccccc12)c1cccc2ccccc12,inactive: 6.7%
24,O=[N+]([O-])c1ccc(Nc2ccc(Oc3ccc([N+](=O)[O-])cc3[N+](=O)[O-])cc2)c([N+](=O)[O-])c1,inactive: -1.1%
